esBAF inh = Bmi1 luciferase reporter increase in mESCs, primary screen, esBAF inhibitor project, mouse ES cells, Bmi1 luciferase knock-in, single point; 350,000 tested, 2% active; AID 602393, 2012; reporter increase, % at 12.5 µM; 24 h; 100% = twice the neutral-well signal; in the data active means activation above about 40%;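 further: 0% = median of the plate's neutral control wells and 100% = double that signal; a rise in the Bmi1 reporter signal indicates esBAF inhibition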
Yeast UUG start = yeast start codon fidelity modulation; AID 602363; activity score, % at 18.7 µM; S. cerevisiae UUG-firefly luciferase reporter, luminescence/redox ratio; 0.13% of 350,000 active;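 active means replicate mean at a twofold rise or more, about +100% in these data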;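 further: firefly luciferase made from a UUG start codon reports start codon fidelity; reporter light over untreated wells divided by growth signal over untreated wells; some hits fall short of that in this replicate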
C2C12 statin = suppressors of statin myotoxicity in C2C12 myotubes, primary screen, cell-based, single point, plate reader | 330,000 tested, 0.78% active | AID 602340, 2012 | C2C12 myotubes + simvastatin, ATP luminescence, 48 h; scaled: DMSO 0, geranylgeraniol control 100 | rescue of ATP level, % at 7.49 µM;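 active means mean ATP rescue above about 67%, or every replicate alone reaching that limit, limit read from the data, passing the limit was not always enough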;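 further: myotubes were challenged with 10 µM simvastatin during compound exposure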
E-selectin induc = E-selectin induction in HUVECs, primary screen, imaging, HUVEC, immunofluorescence imaging, single point. P16581. normalized: neutral wells 0, TNF-alpha wells 100. activation, % at 7.58 µM. 260,000 tested, 0.37% active. AID 686992, 2013;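 active means mean E-selectin-positive cell signal at least 10% of the positive control, reached in at least 60% of replicates, without over 20% cell loss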
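material = human umbilical vein endothelial cells (HUVEC), E-selectin induction | quantity = 3,000 cells/well | medium = EGM-2 growth medium on 0.1% gelatin-coated wells | technique = immunofluorescence imaging | read-out basis = % PE-positive cells | control set = TNF-alpha positive control, DMSO neutral control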
PglD DTNB = C. jejuni PglD acetyltransferase inhibitors, primary screen, biochemical, DTNB colorimetric, single point; UDP-N-acetylbacillosamine N-acetyltransferase PglD (Campylobacter jejuni); purified PglD enzyme, DTNB colorimetric CoA detection; inhibition, % at 12.5 µM; 360,000 tested, 0.098% active; AID 602405, 2012; in the data active means inhibition above about 16%, passing the limit was not always enough
PGC1a acetyl inh = inhibitors of PGC1a acetylation signal, primary screen, cell-based, U2OS, AlphaScreen, inhibitor mode; 350,000 tested, 0.17% active; AlphaScreen anti-acetyl-lysine; with virally co-expressed GCN5 acetyltransferase; AID 651687, 2012; inhibition, % at 15.6 µM;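 active means every replicate shows inhibition of at least 40%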;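 further: 0% = neutral control wells and 100% = positive control wells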
Active calls of the source: *; x = no result. The list is not random: actives were taken first. Their share in the collection is about 2.8%.

[1] CN1C(=O)c2cc(NS(=O)(=O)c3cccc(F)c3)ccc2OC[C@H]2O[C@H](CC(=O)O)CC[C@H]21
[2] CN1CCN(C(=O)C[C@H]2CC[C@H]3[C@@H](COC[C@@H](O)CN3S(=O)(=O)c3cccc(F)c3)O2)CC1
[3] COc1ccc(NC(=O)Nc2ccc3c(c2)C(=O)N([C@@H](C)CO)C[C@@H](C)[C@H](CN(C)Cc2ccccc2)O3)cc1
[4] CCN1C(C#N)=C(C#N)N=C(C)CC1(C)C
[5] CC(C)NC(=O)Nc1ccc2c(c1)C(=O)N([C@@H](C)CO)C[C@H](C)[C@@H](CN(C)C(=O)NC(C)C)OCCCC[C@H](C)O2
[6] CCN1C(=O)C(C)S/C1=N\S(=O)(=O)c1ccc(Cl)s1 (stereo not drawn)
[7] CCS(=O)(=O)N1CCN(S(=O)(=O)c2ccc(Cl)s2)CC1
[8] C[C@H]1CCCCO[C@H](CN(C)C(=O)Cc2ccccc2)[C@@H](C)CN([C@@H](C)CO)C(=O)c2cc(NC(=O)Nc3ccccc3)ccc2O1

Compound	1	2	3	4	5	6	7	8
esBAF inh	-3.6	-5.5	-0.1	x	x	-6.2	x	-0.9
Yeast UUG start	30.8	15.8	-14.2	x	x	-5.5	7.1	33.7
C2C12 statin	-12.7	-2.8	-35.5	x	x	135.9*	x	x
E-selectin induc	0.2	0.0	0.2	4.5	x	x	-0.3	x
PglD DTNB	3.7	-1.3	-1.1	x	0.3	0.3	5.5	3.4
PGC1a acetyl inh	2.8	4.6	4.9	109.3*	-3.3	0.1	-0.2	2.8

[9] Cc1ccc(S(=O)(=O)Nc2ccc3c(c2)C(=O)N([C@@H](C)CO)C[C@@H](C)[C@@H](CN(C)Cc2ccccc2)O3)cc1
[10] Cc1ccc(NC(=O)CCCNC(=O)c2ccc(Cl)cc2)nc1
[11] Cc1cnc(NC(=O)CCCNC(=O)c2ccc(Cl)cc2)s1
[12] S=c1nc(COc2ccccc2)[nH]c2ccccc12
[13] C[n+]1c(-c2ccccc2)cc2c(=Cc3ccc([N+](=O)[O-])cc3)c3ccccc3n21
[14] C[n+]1c(-c2ccccc2)cc2c(=Cc3ccccc3)c3ccccc3n21
[15] CN(C)c1ccc(/C=C(\C#N)c2ccccc2)cc1
[16] CN(C)c1ccc(C=c2c3cc(O)ccc3n3c2cc(-c2ccccc2)[n+]3C)cc1

Compound	9	10	11	12	13	14	15	16
esBAF inh	6.3	51.8*	41.7*	68.0*	x	x	0.6	x
Yeast UUG start	x	-13.4	-8.6	-21.5	x	x	-44.0	x
C2C12 statin	-12.1	-5.2	1.2	-6.4	x	x	-114.3	x
E-selectin induc	0.2	x	x	0.5	122.3*	220.4*	x	139.0*
PglD DTNB	2.1	-0.9	-2.0	-3.4	x	x	-9.5	x
PGC1a acetyl inh	-4.7	-2.6	3.4	x	x	x	-2.1	x

3 entries from above, sorted by the value under esBAF inh, largest number first.
cpd	structure	esBAF inh
12	S=c1nc(COc2ccccc2)[nH]c2ccccc12	68.0*
9	Cc1ccc(S(=O)(=O)Nc2ccc3c(c2)C(=O)N([C@@H](C)CO)C[C@@H](C)[C@@H](CN(C)Cc2ccccc2)O3)cc1	6.3
15	CN(C)c1ccc(/C=C(\C#N)c2ccccc2)cc1	0.6

(cont.)
[17] CO[C@H]1CN(C)C(=O)c2ccc(NC(=O)Nc3ccc4c(c3)OCO4)cc2OC[C@@H](C)NC[C@@H]1C
[18] CO[C@H]1CN(C)C(=O)c2ccc(NC(=O)c3ccc4c(c3)OCO4)cc2OC[C@H](C)NC[C@@H]1C
[19] CO[C@@H]1CN(C)C(=O)c2ccc(NC(=O)Nc3ccc4c(c3)OCO4)cc2OC[C@H](C)NC[C@H]1C
[20] O=C(COC(=O)CNC(=O)c1ccc(Br)o1)Nc1ccc2c(c1)OCCO2
[21] O=C(COC(=O)c1ccc(Br)o1)Nc1ccc2c(c1)OCCO2
[22] O=C(COC(=O)c1ccc(Br)o1)Nc1ccc2[nH]c(=O)[nH]c2c1
[23] COCc1nc(-c2ccc(-c3ccccc3)nc2OC)no1
[24] CN(C1CCCCC1)S(=O)(=O)c1cn(C)c(=O)n(C)c1=O
[25] Cc1noc(C)c1NC(=O)Nc1ccc2c(c1)CC(=O)N([C@@H](C)CO)C[C@H](C)[C@@H](CN(C)CC1CC1)O2
[26] O=C(C[C@@H]1CC[C@@H](NC(=O)c2ccncc2)[C@H](CO)O1)NCC1CC1

Compound	17	18	19	20	21	22	23	24	25	26
esBAF inh	56.4*	-1.7	92.8*	-0.6	1.9	-8.5	66.4*	0.8	2.2	5.6
Yeast UUG start	x	-3.6	x	-5.9	-11.3	-7.2	6.2	-2.2	2.3	-0.4
C2C12 statin	1.4	3.3	-5.3	141.2*	6.7	9.1	-8.1	-10.9	-16.7	0.9
E-selectin induc	0.2	0.1	0.4	x	x	26.7*	x	29.2*	0.0	0.0
PglD DTNB	4.9	3.9	1.3	-7.5	-0.9	-2.2	-0.1	-0.5	0.3	-0.7
PGC1a acetyl inh	-5.2	6.2	-2.2	-2.0	0.5	-2.9	-5.3	2.1	-6.2	7.7

Screening results from PubChem.
